According to patent US6261767A, “Method for the qualitative and quantitative detection of DNA damage” (Societe Francaise de Recherches et d'Investissements (SFRI), priority 1995, dated 2001):

System: DNA (plasmid 2959 bp)
Conditions: DNA preincubated with increasing quantities in DMSO before adsorption; FIG. 8

## CN(N=O)C(=N)N[N+](=O)[O-]
  genotoxicity (repair ratio vs dose): dose-dependent
